Columns and labels:
human GLP-1 receptor = target: T1, human GLP-1 receptor (Homo sapiens, UniProt P43220); assay: cAMP response (HTRF) of HEK-293 cells stably expressing human GLP-1 receptor; type: cell-based; settings: Table 5; cAMP, HEK-293; read-out: EC50 hGLP-1R
T1 construct: expressed in transfected cells; host or cells: HEK-293

Chains of the proteins cited; added tags and fusions are not shown. Residues count along the entry.
UniProt P43220, 24-463: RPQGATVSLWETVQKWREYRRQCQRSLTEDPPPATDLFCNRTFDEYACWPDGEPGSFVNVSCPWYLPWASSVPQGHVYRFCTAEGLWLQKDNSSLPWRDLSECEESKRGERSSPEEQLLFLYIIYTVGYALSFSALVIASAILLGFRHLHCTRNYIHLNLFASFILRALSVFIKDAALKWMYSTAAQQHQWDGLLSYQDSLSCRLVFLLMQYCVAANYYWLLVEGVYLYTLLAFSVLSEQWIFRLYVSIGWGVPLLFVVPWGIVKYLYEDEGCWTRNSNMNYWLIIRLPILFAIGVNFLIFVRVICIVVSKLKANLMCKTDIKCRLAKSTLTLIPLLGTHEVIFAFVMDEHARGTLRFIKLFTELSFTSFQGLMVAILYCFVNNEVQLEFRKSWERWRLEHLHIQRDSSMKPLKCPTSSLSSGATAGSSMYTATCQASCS
UniProt P47871, 26-477: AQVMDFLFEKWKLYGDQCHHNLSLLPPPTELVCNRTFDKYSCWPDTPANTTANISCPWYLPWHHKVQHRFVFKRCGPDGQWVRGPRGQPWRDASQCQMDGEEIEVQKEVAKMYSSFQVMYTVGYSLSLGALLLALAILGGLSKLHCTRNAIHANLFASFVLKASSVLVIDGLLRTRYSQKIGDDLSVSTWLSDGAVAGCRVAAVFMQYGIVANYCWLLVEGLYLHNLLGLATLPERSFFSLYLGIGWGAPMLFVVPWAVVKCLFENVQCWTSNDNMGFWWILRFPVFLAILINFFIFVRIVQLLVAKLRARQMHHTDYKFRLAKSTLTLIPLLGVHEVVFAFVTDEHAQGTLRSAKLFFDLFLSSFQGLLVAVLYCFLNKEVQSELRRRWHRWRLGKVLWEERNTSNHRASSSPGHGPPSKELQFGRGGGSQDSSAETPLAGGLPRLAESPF

human glucagon receptor = target: T2, human glucagon receptor (Homo sapiens, UniProt P47871); assay: cAMP response (HTRF) of HEK-293 cells stably expressing human glucagon receptor; type: cell-based; settings: Table 5; cAMP, HEK-293; read-out: EC50 hGlucagon-R
T2 construct: expressed in transfected cells; host or cells: HEK-293

Row | Compound | EC50 (human GLP-1 receptor) [pM] | EC50 (human glucagon receptor) [pM]
1 | CCCCCCCCCCCCCCCCCC(=O)N[C@@H](CCC(=O)NCCCC[C@H](NC(=O)[C@H](CCC(N)=O)NC(=O)[C@H](CCCCN)NC(=O)[C@H](CO)NC(=O)[C@H](CC(C)C)NC(=O)[C@H](CC(=O)O)NC(=O)[C@H](CO)NC(=O)[C@@H](NC(=O)[C@H](Cc1ccccc1)NC(=O)[C@@H](NC(=O)CNC(=O)[C@H](CCC(N)=O)NC(=O)C(C)(C)NC(=O)[C@@H](N)Cc1c[nH]cn1)[C@@H](C)O)[C@@H](C)O)C(=O)N[C@@H](CC(=O)O)C(=O)N[C@@H](CO)C(=O)N[C@@H](CCCNC(=N)N)C(=O)N[C@@H](CCCNC(=N)N)C(=O)N[C@@H](C)C(=O)N[C@@H](CCC(N)=O)C(=O)N[C@@H](CC(=O)O)C(=O)N[C@@H](Cc1ccccc1)C(=O)N[C@H](C(=O)N[C@@H](CCC(=O)O)C(=O)N[C@@H](Cc1c[nH]c2ccccc12)C(=O)N[C@@H](CC(C)C)C(=O)N[C@@H](CCCCN)C(=O)N[C@@H](C)C(=O)NCC(=O)NCC(=O)N1CCC[C@H]1C(=O)N[C@@H](CO)C(=O)N[C@@H](CO)C(=O)NCC(=O)N[C@@H](C)C(=O)N1CCC[C@H]1C(=O)N1CCC[C@H]1C(=O)N1CCC[C@H]1C(=O)N[C@@H](CO)C(N)=O)[C@@H](C)CC)C(=O)O [compound 162] | 3.1 | 2.4
2 | CCCCCCCCCCCCCCCC(=O)N[C@@H](CCC(=O)NCCCC[C@H](NC(=O)[C@H](CCC(N)=O)NC(=O)[C@H](CCCCN)NC(=O)[C@H](CO)NC(=O)[C@H](CC(C)C)NC(=O)[C@H](CC(=O)O)NC(=O)[C@H](CO)NC(=O)[C@@H](NC(=O)[C@H](Cc1ccccc1)NC(=O)[C@@H](NC(=O)CNC(=O)[C@H](CCC(N)=O)NC(=O)[C@@H](CO)NC(=O)[C@@H](N)Cc1c[nH]cn1)[C@@H](C)O)[C@@H](C)O)C(=O)N[C@@H](CC(=O)O)C(=O)N[C@@H](CO)C(=O)N[C@@H](CCCCN)C(=O)N[C@@H](C)C(=O)N[C@@H](C)C(=O)N[C@@H](CCC(N)=O)C(=O)N[C@@H](CC(=O)O)C(=O)N[C@@H](Cc1ccccc1)C(=O)N[C@H](C(=O)N[C@@H](CCC(=O)O)C(=O)N[C@@H](Cc1c[nH]c2ccccc12)C(=O)N[C@@H](CC(C)C)C(=O)N[C@@H](CCCCN)C(=O)N[C@@H](CO)C(=O)NCC(=O)NCC(=O)N1CCC[C@H]1C(=O)N[C@@H](CO)C(=O)N[C@@H](CO)C(=O)NCC(=O)N[C@@H](C)C(=O)N1CCC[C@H]1C(=O)N1CCC[C@H]1C(=O)N1CCC[C@H]1C(=O)N[C@@H](CO)C(N)=O)[C@@H](C)CC)C(=O)O [compound 173] | 5.7 | 5.9
3 | CCCCCCCCCCCCCCCCCC(=O)N[C@@H](CCC(=O)NCCCC[C@H](NC(=O)[C@H](CCC(N)=O)NC(=O)[C@H](CCCCN)NC(=O)[C@H](CO)NC(=O)[C@H](CC(C)C)NC(=O)[C@H](CC(=O)O)NC(=O)[C@H](CO)NC(=O)[C@@H](NC(=O)[C@H](Cc1ccccc1)NC(=O)[C@@H](NC(=O)CNC(=O)[C@H](CCC(N)=O)NC(=O)C(C)(C)NC(=O)[C@@H](N)Cc1c[nH]cn1)[C@@H](C)O)[C@@H](C)O)C(=O)N[C@@H](CC(=O)O)C(=O)N[C@@H](CCC(=O)O)C(=O)N[C@@H](CCC(N)=O)C(=O)N[C@@H](CCCNC(=N)N)C(=O)N[C@@H](C)C(=O)N[C@@H](CCCCN)C(=O)N[C@@H](CCC(=O)O)C(=O)N[C@@H](Cc1ccccc1)C(=O)N[C@H](C(=O)N[C@@H](CCC(=O)O)C(=O)N[C@@H](Cc1c[nH]c2ccccc12)C(=O)N[C@@H](CC(C)C)C(=O)N[C@@H](CCCCN)C(=O)N[C@@H](CO)C(=O)NCC(=O)NCC(=O)N1CCC[C@H]1C(=O)N[C@@H](CO)C(=O)N[C@@H](CO)C(=O)NCC(=O)N[C@@H](C)C(=O)N1CCC[C@H]1C(=O)N1CCC[C@H]1C(=O)N1CCC[C@H]1C(=O)N[C@@H](CO)C(N)=O)[C@@H](C)CC)C(=O)O [compound 174] | 2.6 | 1.9

— patent US20140100156A1 (SANOFI, priority 2012, published 2014)
